Assay results reported in article PMC2895947 (Neuropsychopharmacology : official publication of the …, 2010).

Chains of the proteins cited; added tags and fusions are not shown.
UniProt P47746, whole entry: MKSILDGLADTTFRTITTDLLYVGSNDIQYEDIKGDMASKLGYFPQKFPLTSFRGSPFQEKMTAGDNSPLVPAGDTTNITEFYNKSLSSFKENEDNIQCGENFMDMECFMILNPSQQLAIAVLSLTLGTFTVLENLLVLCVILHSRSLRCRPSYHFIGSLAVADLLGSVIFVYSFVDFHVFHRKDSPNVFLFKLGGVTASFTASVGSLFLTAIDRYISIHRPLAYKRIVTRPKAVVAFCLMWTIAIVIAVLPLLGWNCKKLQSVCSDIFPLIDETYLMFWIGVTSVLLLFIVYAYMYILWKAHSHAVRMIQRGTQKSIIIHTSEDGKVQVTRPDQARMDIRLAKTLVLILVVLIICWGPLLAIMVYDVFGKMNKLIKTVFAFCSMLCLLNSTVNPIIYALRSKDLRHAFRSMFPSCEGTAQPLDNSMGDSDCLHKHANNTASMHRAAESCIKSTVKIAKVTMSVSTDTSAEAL

How the values were obtained:
CB1 receptor [1] = target: T1, CB1 receptor (Mus musculus, UniProt P47746); experiment: [3H]WIN55,212-2 autoradiography in brain sections after subchronic treatment; assay type: binding; settings: FAAH−/− mice treated subchronically; 1 nM radioligand; mean ± SEM
[2] = THC blood and brain levels, single bolus vs cumulative dosing; assay type: in vivo; settings: C57Bl/6J mice, mean ± SEM
CB1 receptor [3] = target: T1, CB1 receptor; assay type: biochemical, mice
CB1 receptor [4] = target: T1, CB1 receptor; experiment: Agonist-stimulated [35S]GTPγS binding in spinal cord membranes; assay type: biochemical, mice
[5] = FAAH−/− mice treated subchronically, WIN55,212-2 10 μM, mean ± SEM

CCCCCc1cc(O)c2c(c1)OC(C)(C)[C@@H]1CCC(C)=C[C@@H]21 [THC, Δ^9-tetrahydrocannabinol]
Specific [3H]WIN55,212-2 binding, Caudate-Putamen (CB1 receptor [1]): 0.82 ± 0.11 pCi/g
Specific [3H]WIN55,212-2 binding, Cerebellum (CB1 receptor [1]): 1.19 ± 0.12 pCi/g
Specific [3H]WIN55,212-2 binding, Globus Pallidus (CB1 receptor [1]): 1.55 ± 0.12 pCi/g
Specific [3H]WIN55,212-2 binding, Hippocampus (CB1 receptor [1]): 0.49 ± 0.07 pCi/g
Specific [3H]WIN55,212-2 binding, PAG (CB1 receptor [1]): 0.43 ± 0.07 pCi/g
Specific [3H]WIN55,212-2 binding, Substantia Nigra (CB1 receptor [1]): 2.25 ± 0.20 pCi/g
Blood THC level, single bolus ([2]; THC 3 mg/kg): 97 ± 14 ng/mL
Blood THC level, cumulative dosing ([2]; THC 10 mg/kg cumulative): 179 ± 23 ng/mL
Blood THC level, single bolus ([2]; THC 10 mg/kg): 209 ± 28 ng/mL
Blood THC level, cumulative dosing ([2]; THC 30 mg/kg cumulative): 438 ± 102 ng/mL
Blood THC level, single bolus ([2]; THC 30 mg/kg): 456 ± 83 ng/mL
Blood THC level, cumulative dosing ([2]; THC 56 mg/kg cumulative): 1315 ± 386 ng/mL
Blood THC level, single bolus ([2]; THC 56 mg/kg): 1054 ± 184 ng/mL
WIN55,212-2-stimulated [35S]GTPγS binding vs vehicle control (study 1, Figure 5) (CB1 receptor [3]; FAAH+/+ and FAAH−/− mice, caudate putamen, hippocampus, cerebellum): significantly reduced
Net WIN55,212-2-stimulated [35S]GTPγS binding, Caudate-Putamen (CB1 receptor [3]; [5]): 97 ± 16 nCi/g
Net WIN55,212-2-stimulated [35S]GTPγS binding, Cerebellum (CB1 receptor [3]; [5]): 138 ± 21 nCi/g
Net WIN55,212-2-stimulated [35S]GTPγS binding, Globus Pallidus (CB1 receptor [3]; [5]): 539 ± 41 nCi/g
Net WIN55,212-2-stimulated [35S]GTPγS binding, Hippocampus (CB1 receptor [3]; [5]): 65 ± 14 nCi/g
Net WIN55,212-2-stimulated [35S]GTPγS binding, PAG (CB1 receptor [3]; [5]): 55 ± 13 nCi/g
Net WIN55,212-2-stimulated [35S]GTPγS binding, Substantia Nigra (CB1 receptor [3]; [5]): 506 ± 32 nCi/g

Cc1c(C(=O)c2cccc3ccccc23)c2cccc3c2n1[C@H](CN1CCOCC1)CO3 [WIN, WIN55,212-2]
Emax of agonist-stimulated [35S]GTPγS binding (CB1 receptor [4]; spinal cord membranes from AEA-treated FAAH−/− mice): 33 ±3.2 % Stim
Emax as percent of that obtained in vehicle-treated mice (CB1 receptor [4]; spinal cord membranes from AEA-treated mice): 85%
Emax of agonist-stimulated [35S]GTPγS binding (CB1 receptor [4]; spinal cord membranes from THC-treated FAAH−/− mice): 27 ± 1.4 % Stim
Emax as percent of that obtained in vehicle-treated mice (CB1 receptor [4]; spinal cord membranes from THC-treated mice): 72%
Emax of agonist-stimulated [35S]GTPγS binding (CB1 receptor [4]; spinal cord membranes from vehicle-treated FAAH−/− mice): 39 ± 3.1 % Stim
